Biological target: T1, murine iNOS (Mus musculus, UniProt P29477)
T1 construct: made in house; host or cells: E. coli (plasmid pCWiNOS)
Assay: NOS enzyme inhibitory assay (hemoglobin capture), iNOS
Format: biochemical
Conditions: Table 1b

| SMILES | Ki [µM] |
| --- | --- |
| Cc1cc(N)nc(C[C@H]2CNC[C@H]2NCCNCc2cccc(Cl)c2)c1 (racemic) [Compound P-49] | 9.48 |
| Cc1cc(N)nc(C[C@H]2CNC[C@@H]2NCCNCc2cccc(Cl)c2)c1 (racemic) [Compound P-55] | 44.1 |
